Values of other authors as cited in patent publication US20240043493A1, “ACYLATED SINGLE-CHAIN INSULIN ANALOGUES” (CASE WESTERN RESERVE UNIVERSITY, priority 2020, published 2024).

Settings: for each 10° C. increment in temperature above 25° C.

Substance: Insulin
- increase in degradation rate: ≥ 10 fold
